Source: patent US12180192B2, “Modulators of THR-β and methods of use thereof” (ALIGOS THERAPEUTICS, INC., priority 2019, dated 2024)

The chains behind the UniProt entries cited, without tags or fusion partners. Residues count along the entry.
UniProt P10828, whole entry: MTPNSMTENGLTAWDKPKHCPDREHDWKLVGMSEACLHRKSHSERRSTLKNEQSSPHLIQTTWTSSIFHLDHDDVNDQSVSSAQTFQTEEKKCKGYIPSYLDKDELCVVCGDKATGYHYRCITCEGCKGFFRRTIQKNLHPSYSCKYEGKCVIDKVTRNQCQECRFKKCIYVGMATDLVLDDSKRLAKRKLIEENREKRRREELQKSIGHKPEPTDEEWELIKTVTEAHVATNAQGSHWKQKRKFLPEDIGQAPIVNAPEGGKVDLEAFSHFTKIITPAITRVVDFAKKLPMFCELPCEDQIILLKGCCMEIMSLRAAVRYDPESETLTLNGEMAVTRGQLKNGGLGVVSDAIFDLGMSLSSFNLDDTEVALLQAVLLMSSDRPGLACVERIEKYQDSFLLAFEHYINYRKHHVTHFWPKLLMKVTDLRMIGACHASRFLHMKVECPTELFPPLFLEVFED
UniProt P10828, 217-461 limits assumed: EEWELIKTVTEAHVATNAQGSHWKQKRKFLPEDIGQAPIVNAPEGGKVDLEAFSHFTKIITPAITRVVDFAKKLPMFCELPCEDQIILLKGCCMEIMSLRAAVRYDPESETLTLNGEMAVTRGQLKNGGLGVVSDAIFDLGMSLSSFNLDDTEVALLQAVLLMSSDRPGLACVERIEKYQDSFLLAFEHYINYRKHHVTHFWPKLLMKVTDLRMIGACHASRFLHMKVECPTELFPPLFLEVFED
UniProt P10827, 1-410 isoform 2: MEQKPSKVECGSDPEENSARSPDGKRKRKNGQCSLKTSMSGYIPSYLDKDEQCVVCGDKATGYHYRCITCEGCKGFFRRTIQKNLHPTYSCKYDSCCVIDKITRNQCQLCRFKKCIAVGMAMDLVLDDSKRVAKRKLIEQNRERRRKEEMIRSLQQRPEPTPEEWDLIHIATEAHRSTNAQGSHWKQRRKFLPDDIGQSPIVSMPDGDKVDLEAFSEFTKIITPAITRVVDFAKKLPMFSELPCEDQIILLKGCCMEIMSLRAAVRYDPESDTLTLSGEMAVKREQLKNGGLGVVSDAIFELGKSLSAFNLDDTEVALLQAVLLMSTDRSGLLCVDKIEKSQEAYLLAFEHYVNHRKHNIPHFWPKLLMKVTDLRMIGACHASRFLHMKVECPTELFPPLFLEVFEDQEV
UniProt P10827, 163-410 isoform 2 limits assumed: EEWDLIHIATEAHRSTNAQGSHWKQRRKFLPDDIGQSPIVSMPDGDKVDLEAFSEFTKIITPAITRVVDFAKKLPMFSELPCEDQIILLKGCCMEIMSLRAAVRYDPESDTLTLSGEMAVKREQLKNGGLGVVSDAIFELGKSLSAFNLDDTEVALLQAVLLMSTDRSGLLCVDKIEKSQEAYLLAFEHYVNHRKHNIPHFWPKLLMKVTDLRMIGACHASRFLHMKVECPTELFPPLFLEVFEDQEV
UniProt P19793, whole entry partner: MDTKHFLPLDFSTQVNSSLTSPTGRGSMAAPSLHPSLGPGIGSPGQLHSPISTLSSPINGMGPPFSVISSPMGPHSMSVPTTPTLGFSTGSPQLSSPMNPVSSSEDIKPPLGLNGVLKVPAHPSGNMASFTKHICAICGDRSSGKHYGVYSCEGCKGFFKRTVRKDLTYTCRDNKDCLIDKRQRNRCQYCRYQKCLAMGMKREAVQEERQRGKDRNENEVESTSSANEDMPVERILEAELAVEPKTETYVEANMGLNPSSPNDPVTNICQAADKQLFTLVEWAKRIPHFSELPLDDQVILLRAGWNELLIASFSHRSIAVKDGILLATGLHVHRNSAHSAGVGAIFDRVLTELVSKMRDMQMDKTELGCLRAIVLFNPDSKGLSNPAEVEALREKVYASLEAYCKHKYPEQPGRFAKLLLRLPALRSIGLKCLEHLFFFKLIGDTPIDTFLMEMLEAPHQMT

Columns and labels:
[1] = biological target: human thyroid receptor beta ligand-binding domain (LBD) (Homo sapiens, UniProt P10828); assay: TR-FRET thyroid receptor beta coactivator assay (THR biochemical assay, Assay 1)
[2] = biological target: human thyroid receptor alpha ligand-binding domain (LBD) (Homo sapiens, UniProt P10827); assay: TR-FRET thyroid receptor alpha coactivator assay (THR biochemical assay, Assay 1)
[3] = biological target: THR beta (Homo sapiens, UniProt P10828); assay: HEK293T THR beta/RXR luciferase reporter assay (Assay 2); type: cell-based
[4] = biological target: THR alpha (Homo sapiens, UniProt P10827); assay: HEK293T THR alpha/RXR luciferase reporter assay (Assay 2); type: cell-based

## CC(C)C1(c2cc(Oc3c(Cl)cc(-n4nc(N)c(=O)[nH]c4=O)cc3Cl)n[nH]c2=O)CC1
[1]; Table 5, Assay 1, THRβ
  Activity category Assay 1 THRβ (Emax): C (Emax<50%)
[1]; read-out: Activity category Assay 1 (EC50, THR-beta agonist), THR-beta, TR-FRET coactivator assay
  EC50: < 50 nM
[2]; Table 5, THRα
  Activity category Assay 1 THRα (Emax): C (Emax<50%)
[2]; read-out: Activity category Assay 1 (EC50, THR-alpha agonist activity), Table 4, THR-alpha
  EC50: 50 to 250 nM
[3]; Table 5, Assay 2, THRβ
  Activity category Assay 2 THRβ (Emax): A (Emax≥75%)
[3]; read-out: Activity category Assay 2 (EC50, THR-beta agonist), THR-beta, HEK293T reporter assay
  EC50: < 50 nM
[4]; Table 5, THRα
  Activity category Assay 2 THRα (Emax): B (Emax≥50%, and <75%)
[4]; read-out: Activity category Assay 2 (EC50, THR-alpha agonist activity), Table 4, THR-alpha
  EC50: 50 to 250 nM
